Experimental data as given in patent US10967068B2, “Stability-modulating linkers for use with antibody drug conjugates” (priority 2014, dated 2021).
“And” between values parts separate entries of the source, which are not always exact repeats. Identical values can stand only once. Like-named read-outs stand apart in the source and are kept apart here.

Legend:
[1] = In Vitro Stability Assay—Mouse Plasma; type: in vitro ADME; conditions: for Conjugate Stability In Vitro in Mouse Plasma (% DAR remaining), H7C: tag H7C; for Conjugate Stability In Vitro in Mouse Plasma (% DAR remaining), H8A: tag H8A; for Conjugate Stability In Vitro in Mouse Plasma (% DAR remaining), H10: tag H10; for Conjugate Stability In Vitro in Mouse Plasma (% DAR remaining), H16: tag H16; for Conjugate Stability In Vitro in Mouse Plasma (% DAR remaining), LCQ04: tag LCQ04
[2] = 4.5 d; for Conjugate stability In Vitro in Cyno Plasma (% DAR remaining), H7C: tag H7C; for Conjugate stability In Vitro in Cyno Plasma (% DAR remaining), H8A: tag H8A; for Conjugate stability In Vitro in Cyno Plasma (% DAR remaining), H10: tag H10; for Conjugate stability In Vitro in Cyno Plasma (% DAR remaining), H16: tag H16; for Conjugate stability In Vitro in Cyno Plasma (% DAR remaining), L11B/C: tag L11B/C; for Conjugate stability In Vitro in Cyno Plasma (% DAR remaining), LCQ04: tag LCQ04; for Conjugate stability In Vitro in Cyno Plasma (% DAR remaining), TG6: tag TG6
[3] = 9 mg/kg
[4] = 4.5 d; for Conjugate Stability In Vitro in Rat Plasma (% DAR remaining), H7C: tag H7C; for Conjugate Stability In Vitro in Rat Plasma (% DAR remaining), H8A: tag H8A; for Conjugate Stability In Vitro in Rat Plasma (% DAR remaining), H10: tag H10; for Conjugate Stability In Vitro in Rat Plasma (% DAR remaining), H16: tag H16; for Conjugate Stability In Vitro in Rat Plasma (% DAR remaining), L11B/C: tag L11B/C; for Conjugate Stability In Vitro in Rat Plasma (% DAR remaining), LCQ04: tag LCQ04; for Conjugate Stability In Vitro in Rat Plasma (% DAR remaining), TG6: tag TG6
[5] = 9 mg/kg; for Conjugate Stability In Vivo in Mouse (% DAR remaining), LCQ04: tag LCQ04 on Trop2 antibody; for Conjugate Stability In Vivo in Mouse (% DAR remaining), TG6: tag TG6 on Trop2 antibody
[6] = attachment position H7C, % DAR remaining after plasma 3 or 4.5 days
[7] = attachment position H8A, % DAR remaining after plasma 3 or 4.5 days
[8] = attachment position H10, % DAR remaining after plasma 3 or 4.5 days
[9] = attachment position L11B, % DAR remaining after plasma 3 or 4.5 days
[10] = attachment position LCQ04, % DAR remaining after plasma 3 or 4.5 days
[11] = attachment position TG6, % DAR remaining after incubation in plasma for 3 or 4.5 days
[12] = attachment position TG6, plasma species not printed in table (values match mouse plasma, Table 4)

Compound: CC[C@H](C)[C@@H]([C@@H](CC(=O)N1CCC[C@H]1[C@H](OC)[C@@H](C)C(=O)N[C@@H](Cc1ccccc1)c1nccs1)OC)N(C)C(=O)[C@@H](NC(=O)C(C)(C)NC(=O)OCc1ccc(NC(=O)[C@H](CCCNC(N)=O)NC(=O)[C@@H](NC(=O)[C@H](CCCCN)NC(=O)CO)C(C)C)cc1)C(C)C [Example 25, N˜2˜-(hydroxyacetyl)-L-lysylvalyl-N-{4-[(8S,11S,12R)-11-[(2S)-butan-2-yl]-12-(2-{(2S)-2-[(1R,2R)-1-methoxy-2-methyl-3-oxo-3-{[(1S)-2-phenyl-1-(1,3-thiazol-2-yl)ethyl]amino}propyl]pyrrolidin-1-yl}-2-oxoethyl)-5,5,10-trimethyl-3,6,9-trioxo-8-(propan-2-yl)-2,13-dioxa-4,7,10-triazatetradec-1-yl]phenyl}-N˜5˜-carbamoyl-L-ornithinamide]
- DAR after plasma incubation for 3 to 4.5 days ([1]; attachment position L11B): 1.61

Compound: AcLys-vc0101 [Example 11]
- Conjugate stability In Vitro in Cyno Plasma (% DAR remaining), H7C [2]: 99%
- Conjugate stability In Vitro in Cyno Plasma (% DAR remaining), H8A [2]: 100%
- Conjugate stability In Vitro in Cyno Plasma (% DAR remaining), H10 [2]: 99%
- Conjugate stability In Vitro in Cyno Plasma (% DAR remaining), H16 [2]: 100%
- Conjugate stability In Vitro in Cyno Plasma (% DAR remaining), L11B/C [2]: 97%
- Conjugate stability In Vitro in Cyno Plasma (% DAR remaining), LCQ04 [2]: 100%
- Conjugate stability In Vitro in Cyno Plasma (% DAR remaining), TG6 [2]: 99%
- Conjugate Stability In Vivo in Rat (% DAR remaining), N297A ([3]; rat, in vivo): ~100%
- Conjugate Stability In Vivo in Rat (% DAR remaining), H8A ([3]; tag H8A on Trop2 antibody, 14 d): 94%
- Conjugate Stability In Vivo in Rat (% DAR remaining), H10 ([3]; tag H10 on Trop2 antibody, 14 d): 98%
- Conjugate Stability In Vivo in Rat (% DAR remaining), L11B/C ([3]; tag L11B/C on Trop2 antibody, 14 d): 88%
- Conjugate Stability In Vivo in Rat (% DAR remaining), LCQ04 ([3]; tag LCQ04 on Trop2 antibody, 14 d): 94%
- Conjugate Stability In Vitro in Rat Plasma (% DAR remaining), H7C [4]: 98%
- Conjugate Stability In Vitro in Rat Plasma (% DAR remaining), H8A [4]: 100%
- Conjugate Stability In Vitro in Rat Plasma (% DAR remaining), H10 [4]: 98%
- Conjugate Stability In Vitro in Rat Plasma (% DAR remaining), H16 [4]: 100%
- Conjugate Stability In Vitro in Rat Plasma (% DAR remaining), L11B/C [4]: 96%
- Conjugate Stability In Vitro in Rat Plasma (% DAR remaining), LCQ04 [4]: 99%
- Conjugate Stability In Vitro in Rat Plasma (% DAR remaining), TG6 [4]: 99%
- Conjugate Stability In Vivo in Mouse (% DAR remaining), LCQ04 ([5]; 3 d): 95%
- Conjugate Stability In Vivo in Mouse (% DAR remaining), LCQ04 ([5]; 10 d): 80%
- Conjugate Stability In Vitro in Mouse Plasma (% DAR remaining), N297A [1]: 100%
- DAR after plasma incubation for 3 to 4.5 days ([1]; attachment position H7C): 1.61
- Conjugate stability (%) [1, 6]: 85%
- DAR after plasma incubation for 3 to 4.5 days ([1]; attachment position H8A): 1.34
- Conjugate stability (%) [1, 7]: 73%
- DAR after plasma incubation for 3 to 4.5 days ([1]; attachment position H10): 1.50
- Conjugate stability (%) [1, 8]: 92%
- DAR after plasma incubation for 3 to 4.5 days ([1]; attachment position L11B): 1.22
- Conjugate stability (%) [1, 9]: 65%
- DAR after plasma incubation for 3 to 4.5 days ([1]; attachment position LCQ04): 1.85
- Conjugate stability (%) [1, 10]: 99%
- Conjugate Stability In Vitro in Mouse Plasma (% DAR remaining), H7C ([1]; 4.5 d): 85%
- Conjugate Stability In Vitro in Mouse Plasma (% DAR remaining), H8A ([1]; 4.5 d): 73%
- Conjugate Stability In Vitro in Mouse Plasma (% DAR remaining), H10 ([1]; 4.5 d): 92%
- Conjugate Stability In Vitro in Mouse Plasma (% DAR remaining), H16 ([1]; 4.5 d): 100%
- Conjugate Stability In Vitro in Mouse Plasma (% DAR remaining), L11B/C ([1]; tag L11B/C, 4.5 d): 65%
- Conjugate Stability In Vitro in Mouse Plasma (% DAR remaining), LCQ04 ([1]; 4.5 d): 99%
- Conjugate Stability In Vitro in Mouse Plasma (% DAR remaining), TG6 ([1]; tag TG6, 4.5 d): 92% and 94%
- Conjugate Stability In Vitro in Mouse Plasma (% DAR remaining), TG6 ([1]; tag TG6 on Trop2 antibody, 3 d): 93% and 94%

Compound: AcLys-vcMMAD [Example 9]
- Conjugate Stability In Vivo in Mouse (% DAR remaining), LCQ04 ([5]; 4 d, value marked **): 89** %
- Conjugate Stability In Vivo in Mouse (% DAR remaining), TG6 ([5]; 4 d): 83%
- Conjugate stability (%) [1, 11]: 92%
- DAR after plasma incubation for 3 to 4.5 days [1, 12]: 1.80
- Conjugate Stability In Vitro in Mouse Plasma (% DAR remaining), LCQ04 ([1]; 3 d, value marked *): 90%
- Conjugate Stability In Vitro in Mouse Plasma (% DAR remaining), LCQ04 ([1]; 3 d, value marked **): 97%
- Conjugate Stability In Vitro in Mouse Plasma (% DAR remaining), TG6 ([1]; tag TG6 on Trop2 antibody, 3 d): 88%

Compound: C6vc0101 [Example 10]
- Conjugate stability In Vitro in Cyno Plasma (% DAR remaining), H7C [2]: 98%
- Conjugate stability In Vitro in Cyno Plasma (% DAR remaining), H8A [2]: 101%
- Conjugate stability In Vitro in Cyno Plasma (% DAR remaining), H10 [2]: 97%
- Conjugate stability In Vitro in Cyno Plasma (% DAR remaining), H16 [2]: 100%
- Conjugate stability In Vitro in Cyno Plasma (% DAR remaining), L11B/C [2]: 99%
- Conjugate stability In Vitro in Cyno Plasma (% DAR remaining), LCQ04 [2]: 100%
- Conjugate stability In Vitro in Cyno Plasma (% DAR remaining), TG6 [2]: 99%
- Conjugate Stability In Vitro in Rat Plasma (% DAR remaining), H7C [4]: 97%
- Conjugate Stability In Vitro in Rat Plasma (% DAR remaining), H8A [4]: 99%
- Conjugate Stability In Vitro in Rat Plasma (% DAR remaining), H10 [4]: 97%
- Conjugate Stability In Vitro in Rat Plasma (% DAR remaining), H16 [4]: 100%
- Conjugate Stability In Vitro in Rat Plasma (% DAR remaining), L11B/C [4]: 94%
- Conjugate Stability In Vitro in Rat Plasma (% DAR remaining), LCQ04 [4]: 99%
- Conjugate Stability In Vitro in Rat Plasma (% DAR remaining), TG6 [4]: 97%
- Conjugate Stability In Vivo in Mouse (% DAR remaining), LCQ04 ([5]; 3 d): 72%
- Conjugate Stability In Vivo in Mouse (% DAR remaining), LCQ04 ([5]; 10 d): 24%
- Conjugate Stability In Vitro in Mouse Plasma (% DAR remaining), N297A [1]: 89%
- Conjugate Stability In Vitro in Mouse Plasma (% DAR remaining), N297Q [1]: 100%
- Conjugate stability (%) [1]: 87% and 100%
- DAR after plasma incubation for 3 to 4.5 days ([1]; attachment position H7C): 0.34
- Conjugate stability (%) [1, 6]: 22%
- DAR after plasma incubation for 3 to 4.5 days ([1]; attachment position H8A): 0.11
- Conjugate stability (%) [1, 7]: 6%
- DAR after plasma incubation for 3 to 4.5 days ([1]; attachment position H10): 0.71
- Conjugate stability (%) [1, 8]: 42%
- DAR after plasma incubation for 3 to 4.5 days ([1]; attachment position H16): 2.00
- Conjugate stability (%) ([1]; attachment position H16, % DAR remaining after plasma 3 or 4.5 days): 100%
- DAR after plasma incubation for 3 to 4.5 days ([1]; attachment position L11B): 0.09
- Conjugate stability (%) [1, 9]: 5%
- DAR after plasma incubation for 3 to 4.5 days ([1]; attachment position LCQ04): 1.63
- Conjugate stability (%) [1, 10]: 86%
- Conjugate stability (%) [1, 11]: 34%
- DAR after plasma incubation for 3 to 4.5 days [1, 12]: 0.67
- Conjugate Stability In Vitro in Mouse Plasma (% DAR remaining), H7C ([1]; 4.5 d): 22%
- Conjugate Stability In Vitro in Mouse Plasma (% DAR remaining), H8A ([1]; 4.5 d): 6%
- Conjugate Stability In Vitro in Mouse Plasma (% DAR remaining), H10 ([1]; 4.5 d): 42, 42%
- Conjugate Stability In Vitro in Mouse Plasma (% DAR remaining), H16 ([1]; 4.5 d): 100%
- Conjugate Stability In Vitro in Mouse Plasma (% DAR remaining), L11B/C ([1]; tag L11B/C, 4.5 d): 4% and 5%
- Conjugate Stability In Vitro in Mouse Plasma (% DAR remaining), LCQ04 ([1]; 4.5 d): 88% and 86%
- Conjugate Stability In Vitro in Mouse Plasma (% DAR remaining), TG6 ([1]; tag TG6, 4.5 d): 44% and 34%
- Conjugate Stability In Vitro in Mouse Plasma (% DAR remaining), TG6 ([1]; tag TG6 on Trop2 antibody, 3 d): 64% and 54%

Compound: C6vcMMAD [Example 8]
- Conjugate Stability In Vivo in Mouse (% DAR remaining), H7C ([5]; tag H7C on Trop2 antibody, 3 d): 1%
- Conjugate Stability In Vivo in Mouse (% DAR remaining), TG6 ([5]; 3 d): 0%
- Conjugate Stability In Vitro in Mouse Plasma (% DAR remaining), H12C [1]: 96%
- Conjugate Stability In Vitro in Mouse Plasma (% DAR remaining), H13A [1]: 0%
- Conjugate Stability In Vitro in Mouse Plasma (% DAR remaining), L11B/C [1]: 5%
- Conjugate Stability In Vitro in Mouse Plasma (% DAR remaining), N297A [1]: 77%
- Conjugate Stability In Vitro in Mouse Plasma (% DAR remaining), N297Q [1]: 96%
- Conjugate Stability In Vitro in Mouse Plasma (% DAR remaining), H7C ([1]; 3 d): 26%
- Conjugate Stability In Vitro in Mouse Plasma (% DAR remaining), H8A ([1]; 3 d): 18%
- Conjugate Stability In Vitro in Mouse Plasma (% DAR remaining), H10 ([1]; 3 d): 37%
- Conjugate Stability In Vitro in Mouse Plasma (% DAR remaining), H16 ([1]; 3 d): 99%
- Conjugate Stability In Vitro in Mouse Plasma (% DAR remaining), L11B/C ([1]; tag L11B (first value of 9/5), 3 d): 9%
- Conjugate Stability In Vitro in Mouse Plasma (% DAR remaining), LCQ04 ([1]; 3 d, value marked *): 66%
- Conjugate Stability In Vitro in Mouse Plasma (% DAR remaining), LCQ04 ([1]; 3 d, value marked **): 75%
- Conjugate Stability In Vitro in Mouse Plasma (% DAR remaining), TG6 ([1]; tag TG6 on Trop2 antibody, 3 d): 51%
